PubChem BioAssay AID652162 (Broad Institute, 2013)
This is a selection; strong and weak results do not stand in their true shares. Some of these compounds have results that are not shown, active ones among them. The source made the active and inactive calls. Cut-off read from the data, not from the text of the source: active = inhibition above about 10%; inactive = the rest.

The compounds below were run against Toxin B (Clostridioides difficile) (UniProt P18177) (assay: TcdB glycohydrolase inhibitors, primary screen, biochemical, single point, plate reader (AID 652162)). Conditions: TcdB glycohydrolase enzymatic assay, at 9.99 µM, stronger effect = higher value.
With `CCN(CC)CC(C)C(C)OC(=O)C(O)(c1ccccc1)c1ccccc1` (configuration not stated) the inhibition was inactive: 0.441%. For `COc1cc(SC)ccc1C(=O)NCC1(N(C)C)CCCCC1`, the inhibition was inactive: 0.473%. `Cc1ccc(C(=O)NCC2(N3CCCCC3)CCCCC2)cc1` was tested, and the inhibition was inactive: 0.978%. In the case of `O=C(NCC1(N2CCCCC2)CCCCC1)c1cc([N+](=O)[O-])ccc1Cl`, the inhibition is reported as inactive: -0.053%. For `CN1[C@@H]2CC[C@H]1CC(OC(=O)C(O)(c1ccccc1)c1ccccc1)C2` (some centres not stated), the inhibition was inactive: 1.28%. For `C=CCN1CCN(CCOC(=O)C(O)(c2ccccc2)c2ccccc2)CC1`, the inhibition was inactive: -1.23%. `O=C(NCC1(N2CCCCC2)CCCCC1)c1cc(F)c(F)cc1Cl` was tested, and the inhibition was inactive: 0.418%. In the case of `COc1ccc(C(=O)NCC2(N(C)C)CCCCC2)cc1`, the inhibition is reported as inactive: 1.55%. For `Cc1cc(C(=O)NCC2(N3CCCCC3)CCCCC2)ccc1[N+](=O)[O-]`, the inhibition was inactive: -0.716%. In the case of `O=C(NCC1(N2CCCCC2)CCCCC1)c1cccc(Br)c1`, the inhibition is reported as inactive: 1.45%. With `Cc1ccccc1C(=O)NCC1(N2CCCCC2)CCCCC1` the inhibition was inactive: 0.695%. With `CN(C)c1ccc(C(=O)NCC2(N(C)C)CCCCC2)cc1` the inhibition was inactive: 0.985%. With `CN(C)C1CCCC1OC(=O)C(O)(c1ccccc1)c1ccccc1` (configuration not stated) the inhibition was inactive: 0.725%. For `COc1cccc(C(=O)NCC2(N3CCCCC3)CCCCC2)c1`, the inhibition was inactive: 0.734%. With `COc1ccc(Cl)cc1C(=O)NCC1(N(C)C)CCCCC1` the inhibition was inactive: -4.72%. `O=C(NCC1(N2CCCCC2)CCCCC1)c1cccc(Cl)c1` was tested, and the inhibition was inactive: -0.178%. For `CN(C)C1(CNC(=O)c2ccc(Br)cc2)CCCCC1`, the inhibition was inactive: 0.316%. With `COc1cc(C(=O)NCC2(N(C)C)CCCCC2)c([N+](=O)[O-])cc1OC` the inhibition was inactive: 1.3%. `C=C(C)C#CC(O)(C(=O)OC1CCN(C)CC1)c1ccccc1` (configuration not stated) was tested, and the inhibition was inactive: 3.55%. In the case of `COc1ccc(Br)c(C(=O)NCC2(N3CCCCC3)CCCCC2)c1`, the inhibition is reported as inactive: 0.191%. For `CC(C)Oc1ccc(C(=O)NCC2(N(C)C)CCCCC2)cc1`, the inhibition was inactive: 0.7%. For `O=C(OCCN1CCCC1)C(O)(c1ccccc1)c1ccccc1`, the inhibition was inactive: 0.423%.
